Antibody variant affinities, Ab-14 heavy chain, assay 1

The measurements come from Engelhart et al. 2022 (doi:10.1038/s41597-022-01779-4) through the FLAb antibody collection.

Antigen: PDVDLGDISGINAS, a 14-residue peptide of the SARS-CoV-2 spike HR2 region.

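In library AAYL49, one, two or three CDR residues were substituted; doubles and triples were drawn at random. The assay is AlphaSeq: two haploid yeast populations carry antibody and antigen on their surface. Binding brings cells together so that they mate, and sequencing counts the barcode pairs among the diploids. Scores were corrected for input abundance and mapped to Kd with protein pairs of known affinity run in the same pool. Each pool was mated in three replicate cultures.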

Parent scFv Ab-14: VH joined to VL by three GGGGS repeats. Changes lie in the heavy chain CDRs alone.
VH: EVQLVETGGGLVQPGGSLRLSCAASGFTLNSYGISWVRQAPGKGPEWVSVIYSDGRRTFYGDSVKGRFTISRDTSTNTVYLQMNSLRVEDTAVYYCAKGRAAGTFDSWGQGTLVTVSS
VL: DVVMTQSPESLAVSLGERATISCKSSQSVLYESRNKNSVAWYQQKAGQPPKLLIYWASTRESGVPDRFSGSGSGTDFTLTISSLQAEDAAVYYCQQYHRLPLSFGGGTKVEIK

Each variant is given by its three heavy chain CDRs, as the data file delimits them; those of the parent are GFTLNSYGIS, VIYSDGRRTFYGDSVK, GRAAGTFDS. The read-out is the apparent dissociation constant on a log10 scale (nM): the lower, the stronger. A pair that was not seen in that replicate is written "ND"; this usually means weak binding, but a binder can also be missed. In this assay the parent's reference entry averaged 0.65; its copy inside this library read 4.11 (one replicate of three).

CDR-H1,CDR-H2,CDR-H3,"replicates, log10 nM",signal with controls
GFTLLSYGIS,EIYSDGRRTFYGDSVK,GRAAGPFDS,ND / 3.10 / ND,1 of 9 (2.79)
GFTLCSYGES,VIYSDYRRTFYGDSVK,GRAAGTFDS,ND / ND / ND,2 of 9 (3.62)
GFTLNSQGPS,VIYSDGGRTFYGDSVK,GRAAGTFDS,4.56 / 4.54 / 4.97,3 of 9 (4.29)
GFTLNSYGIS,VIRSDGDRTFDGDSVK,GRAAGTFDS,5.36 / ND / ND,3 of 9 (4.40)
GFTLGSYGIS,VIYSDGRRTFYGDSKK,GRIAGTFDS,2.06 / 1.53 / 1.83,0 of 9
GFILNSYGIS,VIYSDERRTFYGDSVK,GRAAFTFDS,3.19 / ND / ND,0 of 9
GFTLFSYNIS,VIYSDGRRTFYGDSVK,GRAKGTFDS,ND / ND / ND,0 of 9
GTTLNFYGIS,VIYSDGRRTFYGDSVK,GRAAGTFDS,2.11 / 2.18 / 2.43,4 of 9 (3.89)
GFTLNSYGIS,VIYSDGRRTFYGDSVK,GRDAGTFDS,1.11 / 1.38 / 1.13,6 of 9 (4.52)
GFTLNSYGRS,FIYSDGRRTFYGDSVK,GRAAGTFYS,ND / ND / ND,1 of 9 (3.55)
FFTLNSYGIS,VIDSDVRRTFYGDSVK,GRAAGTFDS,4.78 / 3.97 / ND,3 of 9 (3.88)
GFTPNSYGIS,VIPSDGRPTFYGDSVK,GRAAGTFDS,ND / ND / ND,2 of 9 (3.66)
GFTLNSYGCS,VVYSDGRRTFYGDKVK,GRAAGTFDS,ND / ND / ND,0 of 9
GFTLNSYFIS,VVYSDGRRTFYGDSVK,GRAAGTFDS,ND / ND / ND,1 of 9 (3.56)
GFTLNSYNYS,VIYSDGRREFYGDSVK,GRAAGTFDS,ND / ND / 3.15,0 of 9
GCTKNSYGIS,VIYSDGRRTFYGDSVK,GRAAGTCDS,ND / 3.78 / ND,1 of 9 (3.54)
KFTLNSRGIS,VIYSDGRRTFYGDSVK,GRAAGTFDT,ND / ND / 4.00,1 of 9 (4.99)
GFTLNSYGIS,VIDSDGKRTFYGDSVK,GRSAGTFDS,ND / ND / ND,0 of 9
GWTLNSYSIS,VIYSDYRRTFYGDSVK,GRAAGTFDS,4.85 / ND / ND,4 of 9 (4.42)
GFTLNSYGIS,VIKSDGRRTFYGDSVK,GHAAGTFDS,ND / ND / ND,0 of 9
GFTLMSYGIS,VIYSDGRRTFYGDSVK,GRAAWTTDS,4.47 / 3.43 / ND,1 of 9 (2.54)
GFTLNSYGIS,VIYSDGRRVSYGDVVK,GRAAGTFDS,1.55 / 1.60 / 2.19,3 of 9 (3.80)
GFTLVSYGIS,VIYSDGRRTFCGDSVK,GRAAGTFPS,ND / ND / ND,1 of 9 (4.07)
GFTLNSYGIS,VIISDGRRTFYGDSVW,GRAAGDFDS,3.38 / ND / ND,1 of 9 (3.90)
GFTLNSYGIS,VFYSDGRRTFYGDSVK,GRPAGPFDS,ND / ND / ND,1 of 9 (3.39)
GVTLNSYGIS,VIYSDGRRTFYGDSVK,ARCAGTFDS,ND / ND / ND,3 of 9 (4.36)
GFTLNSYGIS,VIWSDGRRTFYGMSVK,GHAAGTFDS,ND / ND / ND,4 of 9 (4.94)
GFTLNSLGIS,VIYRDGRRTFYGDSVK,GRMAGTFDS,ND / ND / ND,1 of 9 (3.39)
GFTLNSYGIS,VIYSDGRFTFYGDMVK,GRAAGTFDM,ND / ND / ND,1 of 9 (2.92)
GFTLNSYGIS,VINSDGRRTFYVDSVK,GRAAGTFDS,ND / ND / ND,2 of 9 (3.91)
GFTLNSYGIS,VIYSDGRRAFYGDSVD,GRAAGTFDS,1.97 / 2.08 / 1.73,1 of 9 (2.57)
GFTLNRYGIS,VIYSDGRRTFYGDSVK,GRKRGTFDS,ND / ND / ND,0 of 9
GFTLNRYGAS,VIYSDGRRTFYGDSVK,GRAAGTFDW,ND / ND / ND,1 of 9 (2.86)

The 6 strongest on average among those seen in every replicate, once more:

CDR-H1	CDR-H2	CDR-H3	replicates, log10 nM	signal with controls
GFTLNSYGIS	VIYSDGRRTFYGDSVK	GRDAGTFDS	1.11 / 1.38 / 1.13	6 of 9 (4.52)
GFTLNSYGIS	VIYSDGRRVSYGDVVK	GRAAGTFDS	1.55 / 1.60 / 2.19	3 of 9 (3.80)
GFTLGSYGIS	VIYSDGRRTFYGDSKK	GRIAGTFDS	2.06 / 1.53 / 1.83	0 of 9
GFTLNSYGIS	VIYSDGRRAFYGDSVD	GRAAGTFDS	1.97 / 2.08 / 1.73	1 of 9 (2.57)
GTTLNFYGIS	VIYSDGRRTFYGDSVK	GRAAGTFDS	2.11 / 2.18 / 2.43	4 of 9 (3.89)
GFTLNSQGPS	VIYSDGGRTFYGDSVK	GRAAGTFDS	4.56 / 4.54 / 4.97	3 of 9 (4.29)

Nonspecific signal, from three strains lacking the peptide, appeared in 15% of pairings of library AAYL49, centred on 4.06 (5% of these signals below 2.83); values are not corrected for it. For each scFv, signals with the empty controls are counted beside the result, with their mean in brackets.